# In PubChem BioAssay AID957 (National Center for Advancing Translational Sciences (NCATS), 2007):
# Only a part is listed here, and it is no random draw. Calls of active or inactive are those of the source. Calls come from the whole dose curve; as a rule, active = well fitted curve in the direction sought with a large enough effect; inconclusive = small, poorly fitted or top-dose-only effect, or another doubt; inactive = no such curve, though single readings can be large or run the other way.
# Biological target: Alpha-galactosidase A (Homo sapiens) (UniProt P06280)
# Assay: Counterscreen for Glucocerebrosidase Inhibitors: qHTS Assay for Coffee Bean alpha-Galactosidase at pH 4.5;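 note: plate controls were enzyme alone for no effect and no enzyme for full effect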
# Conditions: purified coffee bean alpha-galactosidase, fluorogenic substrate; at 76.9 µM (top of the series)
# Outline: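 Enzyme is added first (2 nM final), then compounds titrated from 0.7 nM to 77 uM, then 80 uM 4-methylumbelliferyl alpha-D-galactopyranoside; after 20 min at room temperature a pH 10 NaOH/glycine stop precedes fluorescence reading at 365/440 nm.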
compound,measurement,value
N#[O+].[C-]#N.[C-]#N.[C-]#N.[C-]#N.[C-]#N.[Fe+2].[Na+].[Na+],"activity change, negative = inhibition",inactive: -0.936%
